Where two headings read alike, the source gives them in different places.

This data set deals with uninfected Vero E6 cells. Particulars: for cytotoxic effects: with or without virus.

Consider `O=C1CN(/N=C/c2ccc(-c3ccc([N+](=O)[O-])cc3)o2)C(O)=N1` [dantrolene], for which the “cytopathic effects in uninfected controls” value (50 μM dantrolene, Day 2, no virus) is “cytopathic effects”; the “cytopathic effects in uninfected controls” value (50 μM dantrolene, Day 4, no virus) is “cytopathic effects”; the “cytopathic effects in uninfected controls” value (100 μM dantrolene, Day 2, no virus) is “cytopathic effects”; the “cytopathic effects in uninfected controls” value (100 μM dantrolene, Day 4, no virus) is “cytopathic effects”. For the same molecule, the cytotoxic effects entry by setting is: (50 μM dantrolene) “Cytotoxic effects”; (100 μM dantrolene) “Cytotoxic effects”. Also, where the note is “lower dilutions (<50 μM dantrolene)”, the “cell viability of uninfected Vero E6 cells” value is listed as “good cell viability”.

Values taken from patent US12605364B2, “Methods of treating SARS-CoV-2 infections” (priority 2020, dated 2026).
